Data taken from article PMC10888688 (International Journal of Molecular Sciences, 2024).
Values after ≈ are worked out from the molar mass of the structure shown.

Legend:
[1] = system: Escherichia coli ATCC 25922; test: MIC, broth dilution, E. coli; assay type: cell-based; conditions: MH broth, overnight at 37 °C, peptide 0 to 16 μM, OD600, E. coli ATCC 25922
Experimental: (§1) Typically, an overnight bacterial culture was grown to the mid-log phase on a shaker at 183 rpm, at 37 °C, and then diluted in 2X Mueller Hinton (MH) broth (Millipore-Sigma^TM, Saint Louis, MO, USA) to achieve a final OD of 0.002. In a 96-well plate, 100 μL of the diluted bacterial culture along with 100 μL of peptide, concentrations ranging from 0 μM to 16 μM, was added and incubated overnight at 37 °C. Peptide concentrations were estimated by UV absorbance at a wavelength of 274 nm using a molar extinction coefficient (ε) of 1420 M^−1 cm^−1. Bacterial growth inhibition was determined by absorbance of 96 well plates at OD600 nm using a Cytation spectrophotometer (Agilent, Santa Clara, CA, USA).

[2] = system: Klebsiella pneumoniae ATCC 13883; test: MIC, broth dilution, K. pneumoniae; assay type: cell-based; conditions: MH broth, overnight at 37 °C, peptide 0 to 16 μM, OD600, K. pneumoniae ATCC 13883
Experimental: as §1

[3] = system: Acinetobacter baumannii ATCC BAA-1798; test: MIC, A. baumannii; assay type: cell-based; conditions: A. baumannii ATCC BAA-1798; broth dilution, overnight at 37 °C, peptide 0 to 16 μM
Experimental: as §1

[4] = system: Streptococcus pyogen ATCC 19615; test: MIC, broth dilution, S. pyogenes; assay type: cell-based, Streptococcus pyogenes; conditions: MH broth, overnight at 37 °C, peptide 0 to 16 μM, OD600, S. pyogenes ATCC 19615
Experimental: as §1

[5] = system: Enterococcus faecalis ATCC 29212; test: MIC, broth dilution, E. faecalis; assay type: cell-based; conditions: MH broth, overnight at 37 °C, peptide 0 to 16 μM, OD600, E. faecalis ATCC 29212
Experimental: as §1

MIC (EC) [1] | MIC (KP) [2] | MIC (AB) [3] | MIC (SP) [4] | MIC (EF) [5] | Structure (SMILES)
>16 µM | >16 µM | >16 µM | >16 µM | >16 µM | CC[C@H](C)[C@H](N)C(=O)N[C@H](C(=O)N[C@@H](Cc1ccc(O)cc1)C(=O)N[C@H]1CSSC[C@@H](C(=O)N[C@@H](CCC(N)=O)C(=O)N[C@@H](CCCNC(=N)N)C(=O)N[C@@H](CCSC)C(N)=O)NC(=O)[C@H](CCCCN)NC(=O)CNC(=O)[C@H]([C@@H](C)O)NC(=O)[C@H](CCCNC(=N)N)NC(=O)[C@H](CCCNC(=N)N)NC(=O)[C@H](CC(N)=O)NC1=O)[C@@H](C)CC [IM14]
– | – | >16 µM | 4 µM (≈ 7.74 µg/mL) | 4 µM (≈ 7.74 µg/mL) | CC[C@H](C)[C@H](NC(=O)[C@@H](NC(=O)[C@@H]1CCCN1C(=O)[C@@H](N)C(C)C)[C@@H](C)CC)C(=O)N[C@@H](Cc1ccc(O)cc1)C(=O)N[C@H]1CSSC[C@@H](C(=O)N[C@@H](CCC(N)=O)C(=O)N[C@@H](CCCNC(=N)N)C(=O)N[C@@H](CCSC)C(N)=O)NC(=O)[C@H](CCCCN)NC(=O)CNC(=O)[C@H]([C@@H](C)O)NC(=O)[C@H](CCCNC(=N)N)NC(=O)[C@H](CCCNC(=N)N)NC(=O)[C@H](CC(N)=O)NC1=O [VM16]
